{"source": "patent US20260388722A1", "about": "“COMPUTER-IMPLEMENTED METHOD FOR IDENTIFICATION OF PHARMACEUTICALLY ACTIVE SUBSTANCES” (published 2026)", "tested_on": "Trypanosoma cruzi amastigotes (Tc(ama))", "assay": "Trypanosoma cruzi amastigote assay, values normalized to benznidazole", "conditions": "normalized to reference compound benznidazole (= 1); higher = more active; described as relative IC50 values", "description": "FIGS. 6 and 7 show an example of an experimental validation of a TPM based ligand optimization. FIG. 6 presents relative IC50 values in the Trypanosoma cruzi amastigote assay of five parent compounds denoted “Regular” and respective TPM-optimized compounds denoted “Isomer”.\nThe assay values shown in FIG. 6 are normalized to a reference compound (benznidazole) to enable direct comparison of different experimental batches. It can be seen that all TPM-optimized compounds “Isomer” according to the invention achieve better activity when compared to their corresponding “Regular” parent compound. The “Regular” and “Isomer” structure relative efficacies against Trypanosoma cruzi amastigotes compared to Benznidazole visualized in FIG. 6 are listed in Table 1.", "data": [{"smiles": "O=C(Cn1ccnc1[N+](=O)[O-])NCc1ccccc1", "values": [{"measurement": "relative efficacy against Trypanosoma cruzi amastigotes (Tc(ama)) compared to Benznidazole", "value": 1}]}]}
